Results on one molecule are retold here after patent US20200093782A1, “ARIANTS OF 2-[6-(4-CHLOROPHENOXY)HEXYL]-OXIRANE-2-CARBOXYLIC ACID FOR USE IN THE TREATMENT, PREVENTION AND/OR AMELIORATION OF BRAIN DISEASES” (Meta-IQ ApS, priority 2016, published 2020).

This assay deals with Lewis rats. Nature of the assay: Rat EAE model (MBP in CFA). Particulars: treatment from day 1 or day 5 after induction, compared with placebo. The format is in vivo. From the text: Six week old C57B16 mice were bred and kept at conventional animal facilities at the University of Copenhagen. Female Lewis rats, 2 months old were used for this study.
All animals were weighed and scored clinically on a daily basis. During progression of EAE, leading to motor disabilities, animals had water in a Petri dish and soaked chow for easy intake to ensure sufficient intake of liquid and nutrients. Healthy animals were used as comparison and control of the EAE exposed animals.
In the rat, EAE was induced by intradermal (i.d.) injection of 0.2 mL of an emulsion consisting of 100 μg Myelin Basic Protein Histochem Cell Biol 123 (MBP) from guinea pig (Sigma, USA, M2295) suspended in 0.1 mL of saline (0.9%) and 0.1 mL complete Freund's adjuvant (CFA; Difco, USA, 0638), with the addition of 0.2 μg of Mycobacterium Tuberculosis H37 Ra (Difco, USA, 3114). […]
The animals were monitored daily, weighed and clinically scored according to the following scale (Imrich and Harzer 2001): 0, no clinical signs of EAE; 1, loss of tail tonus; 2, mild paresis in one or both hindlimbs; 3, moderate paresis in one or both hindlimbs; 4, severe paresis or paralysis in one or both hindlimbs; 5, paralysis in one or both hindlimbs and visible paresis in one or both forelimbs, incontinence; 6, moribund. […]

B1: IFNβ: interferon beta (IFNβ), known as the standard therapy for MS (protein, UniProt P01574 22-187, looked up)
Interferon beta: MSYNLLGFLQRSSNFQCQKLLWQLNGRLEYCLKDRMNFDIPEEIKQLQQFQKEDAALTIYEMLQNIFAIFRQDSSSTGWNETIVENLLANVYHQINHLKTVLEEKLEKEDFTRGKLMSSLHLKRYYGRILHYLKAKEYSHCAWTIVRVEILRNFYFINRLTGYLRN
Turning to B1, the “therapeutic effects when started at day 1 or day 5” value is “did not produce therapeutic effects”.
